Read-outs that look alike come from different tables or passages of the source.
How the values were obtained:
[1] = target: human enzyme NAMPT (full length) (Homo sapiens, UniProt P43490); test: NMN fluorescence biochemical assay (stimulation of NMN synthesis by NAMPT); conditions: for Enzymatic Emax: fold change of maximal activation compared to DMSO; for EC50: read-out: Enzymatic EC50, concentration giving half-maximal activation
[2] = test system: endogenous NAMPT in U2OS cells; test: Cellular NAD+ modulation assay (NAD/NADH-Glo, U2OS cells)
[3] = NMN synthesis by purified human NAMPT (100 nM)
[4] = 24 hours incubation with compound
[5] = read-out: Cellular EC50, 24 hours incubation with compound
[6] = NMN fluorescence assay, purified human NAMPT 100 nM
[7] = 24 hours incubation, cellular NAD+
[8] = read-out: Cellular EC50, 24 hours incubation, cellular NAD+

Sequences of proteins named here, by UniProt entry; tags and fusion partners are left off.
UniProt P43490, whole entry: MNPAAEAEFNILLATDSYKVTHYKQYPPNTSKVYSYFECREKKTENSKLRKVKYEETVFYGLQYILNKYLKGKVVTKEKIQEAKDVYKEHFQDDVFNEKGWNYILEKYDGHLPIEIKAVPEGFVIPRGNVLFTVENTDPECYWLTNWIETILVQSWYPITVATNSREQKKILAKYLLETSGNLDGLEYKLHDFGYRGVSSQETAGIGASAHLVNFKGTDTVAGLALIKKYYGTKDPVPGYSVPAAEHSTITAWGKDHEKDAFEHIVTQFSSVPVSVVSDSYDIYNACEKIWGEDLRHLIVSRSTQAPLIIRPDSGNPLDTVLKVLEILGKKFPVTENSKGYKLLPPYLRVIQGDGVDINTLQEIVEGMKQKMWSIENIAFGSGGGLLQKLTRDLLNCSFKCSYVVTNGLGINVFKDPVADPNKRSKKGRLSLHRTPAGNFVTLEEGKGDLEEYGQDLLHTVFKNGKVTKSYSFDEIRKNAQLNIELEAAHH

Enzymatic Emax [1] | EC50 [1, 3] | EC50 [2, 5] | EC50 [1, 6] | EC50 [2, 8] | SMILES | Cellular Emax [2, 4] | Cellular Emax [2, 7]
B (3≥B>2) |  |  | < 500 nM | < 500 nM | O=C1c2ccccc2C(Cc2nn(C3COC3)cc2Cl)N1Cc1ccc2[nH]nnc2c1 (single isomer, unassigned) [Compound 378/379 (RT = 5.826 min)] |  | A (A>1.5)
A (A>3) |  |  | 500 to 5000 nM | < 500 nM | N#CNC1=NCC2(CC(CN3C(=O)c4ccccc4C3Cc3ncccc3Br)C2)O1 (single isomer, unassigned) [Compound 530/531 (RT = 2.900 min)] |  | A (A>1.5)
A (A>3) |  |  | < 500 nM | < 500 nM | Cn1ncc(Cl)c1CC1c2ccccc2C(=O)N1C/C=C/c1nn[nH]c1F (single isomer, unassigned) [Compound 570/571 (RT = 7.223 min)] |  | A (A>1.5)
A (A>3) |  |  | < 500 nM | < 500 nM | Cc1ncnc(C#N)c1CC1c2ccccc2C(=O)N1C[C@H]1C[C@]2(CNC(=O)O2)C1 (single isomer, unassigned) [Compound 545/546 (RT = 9.713 min)] |  | A (A>1.5)
B (3≥B>2) |  |  | < 500 nM | < 500 nM | Cc1ccnc(C#N)c1CC1c2ccccc2C(=O)N1Cc1ccc2[nH]nnc2c1 (single isomer, unassigned) [Compound 368/369 (RT = 3.334 min)] |  | A (A>1.5)
B (3≥B>2) | 500 to 5000 nM | 5000 to 50000 nM |  |  | O=C1c2ccccc2C(Cc2ccccc2C(F)(F)F)N1Cc1ccc2[nH]c(=O)oc2c1 (single isomer, unassigned) [Compound 135/136 (RT = 2.075 min)] | B (1.5≥B>1.2) | 
B (3≥B>2) |  | 5000 to 50000 nM |  |  | CC(c1ccccn1)C1c2ccccc2C(=O)N1Cc1ccc2[nH]c(=O)oc2c1 (racemic) [Mixture of 152 and 153/mixture of 154 and 155 (RT = 3.68 min] | A (A>1.5) | 
A (A>3) |  |  | < 500 nM | < 500 nM | [2H]C1([2H])NC(=O)O[C@]12C[C@@H](CN1C(=O)c3ccccc3C1Cc1c(Cl)cnn1C)C2 (single isomer, unassigned) [Compound 536/537 (RT = 2.643 min)] |  | A (A>1.5)
A (A>3) |  |  | 500 to 5000 nM | < 500 nM | Cn1ncc(Cl)c1CC1c2cc(Cl)cc(F)c2C(=O)N1C[C@H]1C[C@]2(CNC(=O)O2)C1 (single isomer, unassigned) [Compound 553/554 (RT = 4.617 min)] |  | B (1.5≥B>1.2)
B (3≥B>2) |  |  | < 500 nM | < 500 nM | N#CNC1=NCC2(CC(CN3C(=O)c4ccccc4C3Cc3ncccc3Br)C2)O1 (single isomer, unassigned) [Compound 530/531 (RT = 2.842 min)] |  | B (1.5≥B>1.2)

The remaining lines, values behind:

SMILES | Enzymatic Emax [1] | EC50 [1, 3] | EC50 [2, 5] | EC50 [1, 6] | EC50 [2, 8] | Cellular Emax [2, 4] | Cellular Emax [2, 7]
O=C1c2ccccc2C(Cc2ccccc2C(F)(F)F)N1Cc1ccc2[nH]c(=O)oc2c1 (single isomer, unassigned) [Compound 135/136 (RT = 2.971 min)] | A (A>3) | < 500 nM | 500 to 5000 nM |  |  | A (A>1.5) | 
O=C1NCC2(CC(F)(CN3C(=O)c4ccccc4C3Cc3ncccc3Br)C2)O1 (single isomer, unassigned) [Compound 441/442 (RT = 4.47 min)] | B (3≥B>2) |  |  | < 500 nM | < 500 nM |  | A (A>1.5)
N#Cc1nccc(Cl)c1CC1c2ccccc2C(=O)N1Cc1ccc2[nH]nnc2c1 (single isomer, unassigned) [Compound 229/230 (RT = 7.184 min)] | A (A>3) | < 500 nM | < 500 nM |  |  | B (1.5≥B>1.2) | 
Cn1ncc(Cl)c1CC1c2ccccc2C(=O)N1Cc1ccc2[nH]nnc2c1 (single isomer, unassigned) [Compound 319/320 (RT = 4.047 min)] | A (A>3) |  |  | < 500 nM | < 500 nM |  | B (1.5≥B>1.2)
CC1(CN2C(=O)c3ccccc3C2Cc2ncccc2Br)CC2(CNC(=O)O2)C1 (single isomer, unassigned) [Compound 376/377 (RT = 4.54 min)] | B (3≥B>2) |  |  | 500 to 5000 nM | < 500 nM |  | A (A>1.5)
N#Cc1cccnc1CC1c2ccccc2C(=O)N1Cc1ccc2[nH]c(=O)oc2c1 (single isomer, unassigned) [Compound 258/259 (RT = 2.246 min)] | A (A>3) | 500 to 5000 nM | < 500 nM |  |  | A (A>1.5) | 
Cn1nc(Cl)c(Cl)c1CC1c2ccccc2C(=O)N1C[C@H]1C[C@]2(CNC(=O)O2)C1 (single isomer, unassigned) [Compound 533/534 (RT = 1.708 min)] | B (3≥B>2) |  |  | < 500 nM | < 500 nM |  | B (1.5≥B>1.2)
O=C1c2ccccc2C(Cc2ncccc2C(F)F)N1Cc1ccc2[nH]c(=O)oc2c1 (single isomer, unassigned) [Compound 192/193 (RT = 1.680 min)] | A (A>3) | 500 to 5000 nM | 500 to 5000 nM |  |  | A (A>1.5) | 
O=C1c2ccccc2C(Cc2ccccc2)N1Cc1ccc2[nH]c(=O)oc2c1 (single isomer, unassigned) [Compound 107/108 (RT = 2.417 min)] | B (3≥B>2) |  | 5000 to 50000 nM |  |  | C (1.2≥C) | 
CC1c2cc(Br)ccc2C(=O)N1Cc1ccc2[nH]c(=O)oc2c1 (single isomer, unassigned) [Compound 138/139 (Int 10/Int11: RT = 1.728 min as a starting] | B (3≥B>2) |  | 500 to 5000 nM |  |  | A (A>1.5) | 
CC1c2cc(CN3CCOCC3)ccc2C(=O)N1Cc1ccc2[nH]c(=O)oc2c1 (single isomer, unassigned) [Compound 144/145 (Int 10/Int11: RT = 1.969 min as a starting] | A (A>3) |  | 500 to 5000 nM |  |  | A (A>1.5) | 
CC1c2cc(C3CC3)ccc2C(=O)N1Cc1ccc2[nH]c(=O)oc2c1 (single isomer, unassigned) [Compound 126/127 (Int 10/Int 11: RT = 1.728 min as a startin] | A (A>3) | 500 to 5000 nM | 500 to 5000 nM |  |  | A (A>1.5) | 
O=C1c2ccccc2C(C2CC2)N1Cc1ccc2[nH]c(=O)oc2c1 (single isomer, unassigned) [Compound 73/74 (RT = 4.563 min)] | A (A>3) | 500 to 5000 nM | 500 to 5000 nM |  |  | A (A>1.5) | 
CN1CCCC(CC2c3ccccc3C(=O)N2Cc2ccc3[nH]c(=O)oc3c2)C1=O (racemic) [Mixture of 235 and 236/mixture of 237 and 238 (RT = 3.63 min] | A (A>3) | 500 to 5000 nM | 500 to 5000 nM |  |  | A (A>1.5) | 
O=C1NC[C@]2(C[C@H](CN3C(=O)c4ccccc4C3Cc3ncccc3Br)C2)O1 (single isomer, unassigned) [Compound 345/346 (RT = 2.358 min)] | A (A>3) |  |  | < 500 nM | < 500 nM |  | A (A>1.5)
COc1ccc(CN2C(=O)c3ccccc3C2Cc2c(Cl)cnn2C)cc1 (single isomer, unassigned) [Compound 617/618 (RT = 2.932 min)] | A (A>3) |  |  | 500 to 5000 nM | < 500 nM |  | B (1.5≥B>1.2)
Cn1ncc(Cl)c1CC1c2ccccc2C(=O)N1C[C@H]1C[C@]2(C1)OC(=O)NC2=O (single isomer, unassigned) [Compound 569/644 (RT = 9.799 min)] | B (3≥B>2) |  |  |  | 500 to 5000 nM |  | B (1.5≥B>1.2)
O=C1c2ccccc2C(C2CC2)N1Cc1ccc2[nH]c(=O)oc2c1 (single isomer, unassigned) [Compound 73/74 (RT = 3.760 min)] | B (3≥B>2) |  | 5000 to 50000 nM |  |  | A (A>1.5) | 
CC1c2cc(C3CC3)ccc2C(=O)N1Cc1ccc2[nH]c(=O)oc2c1 (single isomer, unassigned) [Compound 126/127 (Int 10/Int 11: RT = 1.969 min as a startin] | B (3≥B>2) | 500 to 5000 nM | 500 to 5000 nM |  |  | A (A>1.5) | 
O=C1c2ccccc2C(Cc2ccccc2)N1Cc1ccc2[nH]c(=O)oc2c1 (single isomer, unassigned) [Compound 107/108 (RT = 3.042 min)] | A (A>3) | 500 to 5000 nM | 500 to 5000 nM |  |  | A (A>1.5) | 
Cn1ncc(Cl)c1CC1c2cccc(F)c2C(=O)N1C[C@H]1C[C@]2(CNC(=O)O2)C1 (single isomer, unassigned) [Compound 426/427 (RT = 3.262 min)] | B (3≥B>2) |  |  | < 500 nM | < 500 nM |  | A (A>1.5)

Reference: patent US20260078130A1, “NAMPT MODULATORS, PREPARATIONS, AND USES THEREOF” (SIRONAX LTD., priority 2022, published 2026)
